Test results from patent EP4831188A1, “GLYCYRRHETINIC ACID DERIVATIVE AND USE THEREOF” (dated 2026).
Marks after values point to notes of the source that are not given here.

Key:
[1] = Tissue distribution study; details: intragastric 30 mg/kg
Procedure: 3 mg of Compound 16 was accurately weighed, added to solvent (5% DMSO + 5% Tween 80 + 20% PEG400 + 70% double-distilled water), and ultrasonicated until completely dissolved to prepare a 3 mg/mL dosing solution. ICR mice were fasted for 16 h before administration, allowed free access to food and water during the study, and administered intragastrically at a dose of 30 mg/kg. The sampling sites and time points were as follows: […]

SD rats = assay: Radiation dermatitis assay (X-ray, 25 Gy)
Procedure: • 5.1 Animals: SD rats, SPF grade, male, 230-250 g. • 5.2 Equipment: RS 2000·Pro 225 Rad Source X-ray Irradiator; SpectraMax i3 Multifunctional Microplate Reader.
Eighty SD rats were randomly divided into groups, with 10 rats in each group. Except for the blank control group, all rats were subjected to modeling using a Rad Source X-ray irradiator. The hair on the irradiation site was removed 24 hours before irradiation. On the day of irradiation, the rats were anesthetized and received a single X-ray irradiation on the posterior buttock at a dose of 25 Gy, a dose rate of 4 Gy/min, and an irradiation area of 2×2 cm^2. On the second day after irradiation, the test groups (Compound 1, Compound 16, Compound 21) received the corresponding drugs, 100 mg per time, once daily for 28 consecutive days. The blank control group and the model (with matrix) group received the corresponding weight of blank matrix (triethanolamine cream matrix). The positive control group was treated with the corresponding weight of triethanolamine cream or hydrocortisone butyrate cream. At the end of administration, the damaged skin was scored according to erythema/darkening, edema/papules, exudation/crusting, and erosion, with reference to the scoring criteria for atopic dermatitis. After scoring, skin from the damaged site was collected and homogenized, and the content of inflammatory cells in the skin was detected using an ELISA kit. Additional skin was collected, fixed, and then stained with HE, and the number of inflammatory cells was observed.
• Test compounds: The formulations were prepared with reference to triethanolamine cream (test compound concentration: 0.5%). • Positive controls: Commercially available triethanolamine cream (from JOHNSON & JOHNSON SANTE BEAUTE FRANCE, specification: 0.67%); hydrocortisone butyrate cream (from Hubei Heng'an Fulin Pharmaceutical Co., Ltd., specification: 1 mg/g).

ICR mice = assay: Inhibitory activity assay against ear swelling in ICR mice (phorbol ester, TPA); details: for Thickness: right ear, test compounds 3% cream, pimecrolimus cream 10 mg/g, compound dexamethasone acetate cream 0.75 mg/g, 50 µL
Procedure: • ICR mice, male, 20±2 g. • 3.2 Reagents: Inflammatory agent (phorbol ester (TPA)).
ICR mice were randomly divided into groups, with 8 mice in each group. The thickness of the right ear of each animal was measured using a micrometer. Subsequently, except for the blank control group, all mice in other groups were administered 20 µL of 0.03% TPA on both the inner and outer sides of the right ear (10 µL per side) to induce inflammation. The mice were dosed once at 1 h before modeling and 1 h after modeling, respectively. The test groups (Compound 1, Compound 16) received a dose volume of 50 µL each time. The blank control group and the model group (with matrix) were treated with the corresponding volumes of blank matrix (pimecrolimus cream matrix). The positive control group was treated with an equal volume of pimecrolimus cream or compound dexamethasone acetate cream. Before modeling, the ears should be cleaned prior to TPA application. Ear thickness measurement: The thickness of the right ear was measured at 0 h, 2 h, 4 h, and 6 h after TPA induction.
• Test compounds: The formulations were prepared with reference to pimecrolimus cream (from MEDA Manufacturing) (test compound concentration: 3%). • Positive control: Commercially available compound dexamethasone acetate cream (from China Resources Sanjiu Medical & Pharmaceutical Co., Ltd., specification: 0.75 mg/g); commercially available pimecrolimus cream (from MEDA Manufacturing, specification: 10 mg/g).

BALB/c mice = assay: Chloroquine-induced pruritus in mice; details: for Number of scratching bouts: 100 mg once daily for 3 days, test compounds 3% cream, pimecrolimus cream 10 mg/g
Procedure: • 6.1 Animals: Balb/c mice, female. • 6.2 Reagents: Chloroquine; normal saline.
After 3 days of adaptive feeding, 50 female Balb/c mice were randomly divided into groups, with 10 mice in each group. The hair on a 2×3 cm^2 area of the back of each mouse was completely removed using depilatory cream. Except for the blank control group, the test groups (Compound 1, Compound 16) and the model group were treated with the corresponding drugs or matrix (pimecrolimus cream matrix) at the depilated site, 100 mg per time, once daily for 3 consecutive days. The positive control group was treated with the corresponding weight of pimecrolimus cream. Thirty minutes after the last administration, chloroquine (40 mg/kg) was injected subcutaneously. The blank control group was injected subcutaneously with the corresponding volume of normal saline only. The number of scratching bouts within 20 min after chloroquine injection was recorded.
• Test compounds: The formulations were prepared with reference to pimecrolimus cream (test compound concentration: 3%). • Positive control: Commercially available pimecrolimus cream (from MEDA Manufacturing, specification: 10 mg/g).

[2] = result in words, pathological observation of rat skin

CC1(C)C(=O)C(Cl)=C[C@]2(C)[C@H]3C(=O)C=C4[C@@H]5C[C@@](C)(C(=O)O)CC[C@]5(C)CC[C@@]4(C)[C@]3(C)CC[C@@H]12
Tmax ([1]; Colon): 1 h
Tmax ([1]; Kidney): 4 h
Tmax ([1]; Liver): 2 h
Tmax ([1]; Lung): 1 h
Tmax ([1]; Plasma): 1 h
Score (skin lesion score of radiation dermatitis) (SD rats; end of administration, 100 mg once daily for 28 days, test compounds 0.5% cream, triethanolamine cream 0.67%, hydrocortisone butyrate cream 1 mg/g): 4.7 ···
content of the cytokine TGF-β1 (SD rats; result in words): significantly reduce
number of inflammatory cells in the rat radiation dermatitis model (SD rats; result in words): significantly reduce
release of the inflammatory cytokine TNF-α (SD rats; result in words): significantly reduce
skin lesion area (SD rats; result in words): significantly reduce
skin lesion score in the rat radiation dermatitis model (SD rats; result in words): significantly reduce
amount of new granulation tissue in the dermis (SD rats; [2]): significantly increased
number of capillaries in the dermis (SD rats; [2]): significantly increased
Number of inflammatory cells (SD rats; skin, HE staining, 100 mg once daily for 28 days, test compounds 0.5% cream, triethanolamine cream 0.67%, hydrocortisone butyrate cream 1 mg/g): 183 ···
inhibitory activity in the mouse ear swelling inflammation model induced by phorbol ester (ICR mice; result in words): significant inhibitory activity
Thickness (ICR mice; 0 h after TPA induction): 0.215 ± 0.008 mm
Thickness (ICR mice; 2 h after TPA induction): 0.262 ± 0.035 mm
Thickness (ICR mice; 4 h after TPA induction): 0.303±0.032 mm
Thickness (ICR mice; 6 h after TPA induction): 0.352±0.033 mm
Number of scratching bouts (BALB/c mice; 0-10 min after chloroquine 40 mg/kg s.c.): 17+4
Number of scratching bouts (BALB/c mice; 0-20 min after chloroquine 40 mg/kg s.c.): 33 ·
Number of scratching bouts (BALB/c mice; 10-20 min after chloroquine 40 mg/kg s.c.): 16+4**
number of scratching bouts in mice (BALB/c mice; result in words): significantly reduce
